Test results from patent US9745339B2 (GRAFFINITY PHARMACEUTICALS GMBH, priority 2012, dated 2017).

system: Bevacizumab; assay: Microtiter plate chromatography of resins: binding and elution of Bevacizumab; details: fraction of bound Bevacizumab divided by fraction of bound HCP; truncated for values beyond 10
Experimental: Resins were assessed in packed mode by microtiter plate chromatography. For each column, approximately 30 μl of resin were transferred to a 384-well filter plate and sealed with appropriate top fits. Columns with rProtein A SEPHAROSE 4 FF and MABSORBENT A2P HF were included as controls.
Columns were equilibrated with 6.7 column volumes (cv) of phosphate buffered saline (0.15 M NaCl, 20 mM sodium phosphate, pH 7.3; PBS) prior to injection. Either 3.3 cv of whole IgGs dissolved at 0.5 mg ml^−1 in PBS or undiluted host cell proteins (HCP) were injected onto columns.
Unbound protein was washed from columns with 5 cv of PBS prior to elution with 5 cv of glycine buffer at pH 2.5. […] During injection of samples, speed was reduced to 10 g and centrifugation time increased to 5-10 min. Effluent fractions were collected in 384-well plates and concentrations of protein were analyzed by Bradford assay. Protein masses mi, mft and me (see below) were calculated as the product of fraction volume and measured protein concentration.
The fraction of bound protein was calculated as the difference between the total mass of protein injected mi and the mass of protein detected in the flowthrough mft, divided by the total mass of protein injected.
The yield of protein was calculated as the mass of protein eluted me, divided by the mass of protein injected mi.
The selectivity of resins was calculated as the fraction of bound Bevacizumab antibody BAb, divided by the fraction of bound host cell proteins BHCP.
The fraction of bound protein and the yield of protein were calculated for each resin based on data for whole IgG-antibodies. In the case of host cell proteins, only the fraction of bound protein is given. Selectivity of resins was calculated from data for Bevacizumab whole IgG and host cell proteins. Due to limited experimental precision, selectivity was truncated for values beyond 10.

For `NCCOCCOCCn1cnc2cc(C(=O)Nc3nc(-c4ccccn4)cs3)ccc21`, which Selectivity is on record?
Its Selectivity is 7.7.

Which Selectivity does the source give for `Cc1nc2cc(C(=O)Nc3nnc(-c4ccco4)s3)ccc2n1CCOCCOCCN` here?
The Selectivity was 10.0.

With `Cn1nc(C(=O)Nc2ccc3c(c2)ncn3CCCN)c2ccccc21` [Ligand L01, 1-(3-Amino-1-propyl)-5-[(1-methylindazol-3-yl)carboxamido]benzimidazole] as the compound, how does the Selectivity read?
The Selectivity was 3.0.

Which Selectivity does the source give for `Cn1nc(NC(=O)c2ccc3c(c2)ncn3CCCN)c2ccccc21` [Ligand L02, 1-(3-Amino-1-propyl)benzimidazole-5-carboxylic acid N-(1-methyl-3-indazolyl) amide] here?
The Selectivity was 3.6.

With `NCCCn1cnc2cc(C(=O)Nc3nnc(-c4ccco4)s3)ccc21` [Ligand L05, 1-(3-Amino-1-propyl)benzimidazole-5-carboxylic acid N-[5-(2-furyl)-1,3,4-thiadiazol-2-yl]amide] as the compound, how does the Selectivity read?
Its Selectivity is 5.9.

`CCc1nnc(NC(=O)c2ccc3c(c2)ncn3CCCN)s1` [Ligand L07, 1-(3-Amino-1-propyl)benzimidazole-5-carboxylic acid N-(2-ethyl-1,3,4-thiadiazol-5-yl) amide] was tested. Which Selectivity did it give?
The Selectivity was 4.3.

For `NCCCn1cnc2cc(C(=O)Nc3nncs3)ccc21` [Ligand L13, 1-(3-Amino-1-propyl)benzimidazole-5-carboxylic acid N-(1,3,4-thiadiazol-2-yl) amide], which Selectivity is on record?
Its Selectivity is 4.8.

How did the Selectivity turn out when `Cc1nnc(NC(=O)c2ccc3c(c2)ncn3CCCN)s1` [Ligand L14, 1-(3-Amino-1-propyl)benzimidazole-5-carboxylic acid N-(2-methyl-1,3,4-thiadiazol-5-yl) amide] was run?
Its Selectivity is 6.3.

How did the Selectivity turn out when `NCCCNc1ccc(C(=O)Nc2nnc(-c3ccco3)s2)cn1` [Ligand L19, 6-[(3-Amino-1-propyl)amino]nicotinic acid N-[5-(2-furyl)-1,3,4-thiadiazol-2-yl]amide] was run?
Its Selectivity is 7.1.

With `NCCCn1cnc2cc(C(=O)Nc3nc(-c4ccccn4)cs3)ccc21` [Ligand L23, 1-(3-Amino-1-propyl)benzimidazole-5-carboxylic acid N-[4-(2-pyridyl)thiazol-2-yl] amide] as the compound, how does the Selectivity read?
Its Selectivity is 7.7.

How did the Selectivity turn out when `NCCCn1cnc2cc(NC(=O)c3cn4ccsc4n3)ccc21` [Ligand L30, 1-(3-Amino-1-propyl)-5-[(imidazo-[2,1-b]thiazol-6-yl)carboxamido]benzimidazole] was run?
Its Selectivity is 4.8.

`Cn1c(CCCCCN)nc2cc(C(=O)Nc3nnc(-c4ccco4)s3)ccc21` [Ligand L31, 2-(5-Amino-1-pentyl)-1-methylbenzimidazole-5-carboxylic acid N-[5-(2-furyl)-1,3,4-thiadiazol-2-yl]amide] was tested. Which Selectivity did it give?
Its Selectivity is 5.0.

With `Cc1nsc(NC(=O)c2ccc3c(c2)ncn3CCCN)n1` [Ligand L36, 1-(3-Amino-1-propyl)benzimidazole-5-carboxylic acid N-(3-methyl-1,2,4-thiadiazol-5-yl) amide] as the compound, how does the Selectivity read?
The Selectivity was 10.0.

How did the Selectivity turn out when `NCCCNc1ccc(C(=O)Nc2nc(-c3ccccn3)cs2)cn1` [Ligand L40, 6-[(3-Amino-1-propyl)amino]nicotinic acid N-[4-(2-pyridyl)thiazol-2-yl] amide] was run?
The Selectivity was 4.9.

`Cc1nc2cc(C(=O)Nc3nc(-c4ccccn4)cs3)ccc2n1CCCN` [Ligand L42, 1-(3-Amino-1-propyl)-2-methylbenzimidazole-5-carboxylic acid N-[4-(2-pyridyl)thiazol-2-yl] amide] was tested. Which Selectivity did it give?
The Selectivity was 7.4.

How did the Selectivity turn out when `CCc1nc2cc(C(=O)Nc3nc(-c4ccccn4)cs3)ccc2n1CCCN` [Ligand L43, 1-(3-Amino-1-propyl)-2-ethylbenzimidazole-5-carboxylic acid N-[4-(2-pyridyl)thiazol-2-yl] amide] was run?
Its Selectivity is 5.6.

For `CCc1nc2cc(C(=O)Nc3nnc(-c4ccco4)s3)ccc2n1CCCN` [Ligand L44, 1-(3-Amino-1-propyl)-2-ethylbenzimidazole-5-carboxylic acid N-[5-(2-furyl)-1,3,4-thiadiazol-2-yl] amide], which Selectivity is on record?
The Selectivity was 6.3.

How did the Selectivity turn out when `NCCCn1cnc2cc(C(=O)Nc3nc(-c4cccnc4)cs3)ccc21` [Ligand L46, 1-(3-Amino-1-propyl)benzimidazole-5-carboxylic acid N-[4-(3-pyridyl)thiazol-2-yl] amide] was run?
Its Selectivity is 5.9.

`NCCCn1cnc2cc(C(=O)Nc3nc(-c4ccncc4)cs3)ccc21` [Ligand L47, 1-(3-Amino-1-propyl)benzimidazole-5-carboxylic acid N-[4-(4-pyridyl)thiazol-2-yl] amide] was tested. Which Selectivity did it give?
Its Selectivity is 7.7.

Which Selectivity does the source give for `Cc1nc2cc(C(=O)Nc3nc(-c4ccncc4)cs3)ccc2n1CCCN` [Ligand L51, 1-(3-Amino-1-propyl)-2-methylbenzimidazole-5-carboxylic acid N-[4-(4-pyridyl)thiazol-2-yl] amide] here?
Its Selectivity is 6.7.
